Results taken from ChEMBL document CHEMBL5523701, “Structure-based discovery of small molecule inhibitors of FKBP51-Hsp90 protein-protein interaction” (Eur J Med Chem, 2024).
Active and inactive are the calls of the source. The calls are words filed in the database; no cut-off is given here.

Tests used:
SH-SY5Y [1] = experiment: Induction of neurite outgrowth in differentiated human SH-SY5Y cells at 10 uM measured after 5 days by inverted microscopy; type: functional, cell-based; conditions: time 5.0 day
SH-SY5Y [2] = experiment: Induction of mitochondrial membrane potential in human SH-SY5Y cells; type: functional, cell-based
HEK293 [3] = experiment: Inhibition of protein-protein interaction of N-terminal FLAG-tagged FKBP51 transfected in HEK293 cells/Hsp90 in HEK293 cells incubated for 48 hrs by co-immunoprecipitation method; type: cell-based; conditions: Homo sapiens
SH-SY5Y [4] = experiment: Effect on basal respiration in human SH-SY5Y cells; type: functional, cell-based
[5] = target: T1, Peptidyl-prolyl cis-trans isomerase FKBP4 (Homo sapiens) (UniProt Q02790); experiment: Binding affinity to GST-tagged human FKBP52 expressed in Escherichia coli BL21 (DE3) immobilized in CM7 sensor chip by SPR analysis; conditions: dose 2.3-300 µM
T1 sequence (whole entry): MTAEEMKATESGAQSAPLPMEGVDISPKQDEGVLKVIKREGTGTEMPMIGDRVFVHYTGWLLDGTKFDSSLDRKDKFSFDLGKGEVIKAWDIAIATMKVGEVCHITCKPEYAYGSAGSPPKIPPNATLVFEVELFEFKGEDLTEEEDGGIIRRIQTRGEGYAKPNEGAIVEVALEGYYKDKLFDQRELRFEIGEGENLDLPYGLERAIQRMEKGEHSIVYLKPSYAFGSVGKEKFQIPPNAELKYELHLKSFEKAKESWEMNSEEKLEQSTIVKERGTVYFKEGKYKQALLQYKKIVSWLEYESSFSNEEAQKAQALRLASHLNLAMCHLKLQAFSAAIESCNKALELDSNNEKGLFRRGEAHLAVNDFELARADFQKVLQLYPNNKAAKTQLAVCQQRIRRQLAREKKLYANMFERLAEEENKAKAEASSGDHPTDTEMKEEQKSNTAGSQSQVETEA

HEK293 [6] = experiment: Inhibition of FKBP51/Hsp90 protein-protein interaction in HEK293 cells assessed as decrease in luminescence signal at 30 uM by firefly luciferase based assay relative to control; type: cell-based; conditions: Homo sapiens
HEK293 [7] = experiment: Inhibition of FKBP51/Hsp90 protein-protein interaction in HEK293 cells assessed as decrease in luminescence signal by firefly luciferase based assay; type: cell-based; conditions: Homo sapiens, dose <= 30.0 µM
HEK293 [8] = experiment: Induction of cell proliferation in HEK293 cells by cell counting method; type: functional, cell-based; conditions: Homo sapiens
SH-SY5Y [9] = experiment: Induction of mitochondrial membrane potential in human SH-SY5Y cells by TMRM fluorescence based analysis; type: functional, cell-based; conditions: dose 10.0 µM
HEK293 [10] = experiment: Induction of cell proliferation in HEK293 cells at 10 uM measured after 1 hr by MTT assay; type: functional, cell-based; conditions: Homo sapiens
[11] = target: T2, Peptidyl-prolyl cis-trans isomerase FKBP5 (Homo sapiens) (UniProt Q13451); experiment: Binding affinity to GST-tagged human FKBP51 expressed in Escherichia coli BL21 (DE3) immobilized in CM7 sensor chip by SPR analysis; conditions: dose 2.3-300 µM
T2 sequence (whole entry): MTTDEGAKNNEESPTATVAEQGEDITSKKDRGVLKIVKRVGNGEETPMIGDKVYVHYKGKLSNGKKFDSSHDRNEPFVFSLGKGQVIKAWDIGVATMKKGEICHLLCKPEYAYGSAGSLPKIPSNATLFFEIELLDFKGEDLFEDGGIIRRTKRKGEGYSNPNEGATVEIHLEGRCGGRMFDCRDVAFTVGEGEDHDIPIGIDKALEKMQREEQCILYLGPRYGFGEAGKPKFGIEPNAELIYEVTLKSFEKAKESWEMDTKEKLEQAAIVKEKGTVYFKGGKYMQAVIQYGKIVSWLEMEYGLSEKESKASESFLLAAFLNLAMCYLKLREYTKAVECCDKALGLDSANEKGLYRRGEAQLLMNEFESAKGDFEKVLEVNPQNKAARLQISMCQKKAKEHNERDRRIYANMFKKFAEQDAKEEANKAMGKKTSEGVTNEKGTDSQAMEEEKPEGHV

SH-SY5Y [12] = experiment: Effect on respiration coupled to ATP synthesis in human SH-SY5Y cells; type: functional, cell-based
SH-SY5Y [13] = experiment: Effect on maximal respiration in human SH-SY5Y cells; type: functional, cell-based

In the case of `COc1ccc(CC[C@@H](OC(=O)[C@@H]2CCCCN2C(=O)[C@H](c2cc(OC)c(OC)c(OC)c2)C2CCCCC2)c2cccc(OCC(=O)O)c2)cc1OC`, the Activity (SH-SY5Y [1]) is reported as “Active” and the Activity (SH-SY5Y [2]) is reported as “Active”.
In the case of `COc1ccc(CC[C@@H](OC(=O)[C@@H]2CCCCN2C(=O)[C@H](c2cc(OC)c(OC)c(OC)c2)C2CCCCC2)c2cccc(OCCN3CCOCC3)c2)cc1OC`, the Activity (SH-SY5Y [2]) is reported as “Active”.
In the case of `COC(=O)c1c(NC(=O)CSc2nnc(-c3ccco3)c(-c3ccco3)n2)sc(C)c1C`, the inhibition (HEK293 [3]) is reported as “Active”, the Activity (SH-SY5Y [1]) is reported as “Active” and the Activity (SH-SY5Y [4]) is reported as “inactive”. The Activity [5] was “Dose-Dependent Effect”, the inhibition (HEK293 [6]) was over 70% and the inhibition (HEK293 [7]) was “Dose-Dependent Effect”. The Activity (HEK293 [8]) was “inactive”, the Activity (SH-SY5Y [9]) was “Dose-Dependent Effect” and the Activity (HEK293 [10]) was “Active”. For the same compound, the Activity [11] was “Dose-Dependent Effect”, the Activity (SH-SY5Y [12]) was “inactive” and the Activity (SH-SY5Y [13]) was “inactive”.
In the case of `COC(=O)c1c(NC(=O)CCSc2nnc(-c3ccco3)c(-c3ccco3)n2)sc(C)c1C`, the Activity (SH-SY5Y [1]) is reported as “Active”.
